A word on the IC50: it is the concentration that gives 50% inhibition.

The chains behind the UniProt entries cited, without tags or fusion partners. Residues count along the entry.
UniProt P56524, 2-1084: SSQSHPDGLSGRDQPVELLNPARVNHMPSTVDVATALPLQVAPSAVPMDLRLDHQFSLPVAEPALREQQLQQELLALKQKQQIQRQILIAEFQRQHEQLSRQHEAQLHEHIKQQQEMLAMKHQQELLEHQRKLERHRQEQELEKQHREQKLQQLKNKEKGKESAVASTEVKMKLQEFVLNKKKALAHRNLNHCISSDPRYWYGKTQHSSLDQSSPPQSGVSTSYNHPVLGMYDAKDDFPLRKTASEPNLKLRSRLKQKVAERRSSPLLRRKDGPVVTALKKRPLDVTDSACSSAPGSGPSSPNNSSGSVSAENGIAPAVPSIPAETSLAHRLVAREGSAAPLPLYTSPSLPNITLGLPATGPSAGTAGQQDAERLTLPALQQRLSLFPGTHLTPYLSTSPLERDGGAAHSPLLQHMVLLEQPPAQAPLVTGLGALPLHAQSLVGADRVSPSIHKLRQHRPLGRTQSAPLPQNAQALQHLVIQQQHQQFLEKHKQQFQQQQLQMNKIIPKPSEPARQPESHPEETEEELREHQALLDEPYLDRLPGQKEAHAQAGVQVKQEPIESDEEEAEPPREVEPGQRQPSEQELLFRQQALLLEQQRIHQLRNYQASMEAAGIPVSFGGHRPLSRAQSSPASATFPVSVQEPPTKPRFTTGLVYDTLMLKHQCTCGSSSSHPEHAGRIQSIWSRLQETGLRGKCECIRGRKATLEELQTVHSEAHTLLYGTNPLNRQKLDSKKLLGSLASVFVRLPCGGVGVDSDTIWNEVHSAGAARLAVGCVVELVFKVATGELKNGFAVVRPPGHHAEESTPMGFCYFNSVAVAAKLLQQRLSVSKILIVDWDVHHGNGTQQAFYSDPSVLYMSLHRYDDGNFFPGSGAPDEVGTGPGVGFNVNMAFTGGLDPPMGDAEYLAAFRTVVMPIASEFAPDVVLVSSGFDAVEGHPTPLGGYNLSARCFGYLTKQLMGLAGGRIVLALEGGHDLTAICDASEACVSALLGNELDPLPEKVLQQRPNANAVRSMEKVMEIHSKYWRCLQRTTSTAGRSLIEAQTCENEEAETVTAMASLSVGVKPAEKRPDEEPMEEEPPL

The experiment deals with Human recombinant HDAC4 (Homo sapiens (Human), UniProt P56524). The experiment is described as follows: Test 2: HDAC4 assay (fluorogenic substrate, 5 μM acetyl-Gly-Ala-Lys(ε-trifluoroacetyl)-AMC). Format: biochemical. Particulars: Test 2 (values without asterisk). The method, then:
Test 2: HDAC4 Assay Description
Control wells with HDAC4 only (positive control) and without HDAC4 (negative control) were included on the microplate. Bovine trypsin (4.5 μl of a 300 nM solution) was added and the plate incubated for additional 15 minutes at room temperature. The plate was placed in a fluorescence microplate reader, and read at an excitation wavelength of 360 nm and an emission wavelength of 450 nm with a 10 nm bandpath. Fluorescence values for all wells containing HDAC4 (positive control and wells with test compound) were corrected by subtracting negative control fluorescence values, and IC50 values were calculated by fitting the dose-response curves to a 4-parameter logistic function.

For the molecule `CCCN(CCC)C[C@@H](C)NC(=O)c1ccc(-c2noc(C(F)(F)F)n2)cc1` [Example 137, (R)—N-(1-(dipropylamino)propan-2-yl)-4-(5-(trifluoromethyl)-1,2,4-oxadiazol-3-yl)benzamide], the 50% inhibitory concentration (IC50) turned out to be 0.97 nM.

Values taken from US9056843B2, “Trifluoromethyl-oxadiazole derivatives and their use in the treatment of disease” (NOVARTIS AG, priority 2011, dated 2015).
